Source: ChEMBL document CHEMBL5120927, “LEGO-Lipophosphonoxins: A Novel Approach in Designing Membrane Targeting Antimicrobials” (J Med Chem, 2022)

Legend:
Staphylococcus aureus [1] = settings: 4880/C, time 24.0 hrs
Staphylococcus aureus [2] = settings: 5017/C, time 24.0 hrs
Staphylococcus aureus [3] = settings: 4862/C, time 24.0 hrs

Measured: MIC

GENTAMICIN
0.5 µg/mL: Staphylococcus aureus [1] | Staphylococcus aureus [2] | Staphylococcus aureus [3]
